The target of one assay is GluN1/GluN2C receptors (Rattus norvegicus, UniProt P35439+Q00961). The class given is cell-based. Particulars: 10 µM L-glutamate/10 µM glycine; GluN2C with CTD (Fig. 3C). In short, it runs like this:
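Oocytes expressed wild-type GluN1a/GluN2 receptors from 15-30 ng RNA (1:3 molar) and were held in ND-96 at 17 °C for 1-5 days. For Ca2+ chelation, 5 mM EGTA (50 nL) was injected 1-2 h before recording, with uninjected and water-injected oocytes as controls. TEVC was run at -60 mV in 116 mM NaCl, 2 mM KCl, 0.3 mM BaCl2, 5 mM HEPES (pH 7.4). […] Values are mean ± s.e.m.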

By UniProt entry, the sequences of proteins in these tests, tags left out. Residues count along the entry.
UniProt Q00961, 20-1237: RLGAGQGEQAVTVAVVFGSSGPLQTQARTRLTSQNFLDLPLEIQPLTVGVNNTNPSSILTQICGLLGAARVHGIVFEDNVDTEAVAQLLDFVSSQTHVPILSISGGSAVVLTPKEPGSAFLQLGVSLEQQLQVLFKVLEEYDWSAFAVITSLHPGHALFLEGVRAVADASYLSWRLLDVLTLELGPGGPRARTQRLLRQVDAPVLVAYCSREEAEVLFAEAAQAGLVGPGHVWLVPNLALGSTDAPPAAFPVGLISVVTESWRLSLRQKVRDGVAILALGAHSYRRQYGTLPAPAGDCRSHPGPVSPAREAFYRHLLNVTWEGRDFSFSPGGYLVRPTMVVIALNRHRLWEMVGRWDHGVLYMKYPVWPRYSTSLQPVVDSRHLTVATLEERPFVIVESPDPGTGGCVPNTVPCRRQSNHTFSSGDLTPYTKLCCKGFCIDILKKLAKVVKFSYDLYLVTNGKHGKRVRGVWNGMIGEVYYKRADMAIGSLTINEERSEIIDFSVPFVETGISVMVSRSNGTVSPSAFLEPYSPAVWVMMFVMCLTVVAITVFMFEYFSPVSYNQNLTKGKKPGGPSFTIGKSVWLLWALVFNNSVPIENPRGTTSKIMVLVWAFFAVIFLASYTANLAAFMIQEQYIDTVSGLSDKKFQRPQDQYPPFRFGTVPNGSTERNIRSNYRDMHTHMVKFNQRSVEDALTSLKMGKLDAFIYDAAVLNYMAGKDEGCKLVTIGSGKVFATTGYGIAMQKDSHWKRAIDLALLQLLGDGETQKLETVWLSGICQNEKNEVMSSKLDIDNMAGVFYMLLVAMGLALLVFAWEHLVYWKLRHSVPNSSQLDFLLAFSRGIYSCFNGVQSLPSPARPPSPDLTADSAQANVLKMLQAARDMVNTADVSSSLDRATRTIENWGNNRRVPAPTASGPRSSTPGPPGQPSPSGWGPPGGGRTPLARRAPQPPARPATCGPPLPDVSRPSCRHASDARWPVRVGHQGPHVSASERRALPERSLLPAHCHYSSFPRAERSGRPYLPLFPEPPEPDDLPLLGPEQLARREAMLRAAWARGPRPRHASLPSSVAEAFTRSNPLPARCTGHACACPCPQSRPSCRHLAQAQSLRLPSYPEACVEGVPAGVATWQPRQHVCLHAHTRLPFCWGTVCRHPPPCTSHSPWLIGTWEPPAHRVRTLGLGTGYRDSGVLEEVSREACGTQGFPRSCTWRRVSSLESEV
UniProt Q00961, 20-842, stated change not applied: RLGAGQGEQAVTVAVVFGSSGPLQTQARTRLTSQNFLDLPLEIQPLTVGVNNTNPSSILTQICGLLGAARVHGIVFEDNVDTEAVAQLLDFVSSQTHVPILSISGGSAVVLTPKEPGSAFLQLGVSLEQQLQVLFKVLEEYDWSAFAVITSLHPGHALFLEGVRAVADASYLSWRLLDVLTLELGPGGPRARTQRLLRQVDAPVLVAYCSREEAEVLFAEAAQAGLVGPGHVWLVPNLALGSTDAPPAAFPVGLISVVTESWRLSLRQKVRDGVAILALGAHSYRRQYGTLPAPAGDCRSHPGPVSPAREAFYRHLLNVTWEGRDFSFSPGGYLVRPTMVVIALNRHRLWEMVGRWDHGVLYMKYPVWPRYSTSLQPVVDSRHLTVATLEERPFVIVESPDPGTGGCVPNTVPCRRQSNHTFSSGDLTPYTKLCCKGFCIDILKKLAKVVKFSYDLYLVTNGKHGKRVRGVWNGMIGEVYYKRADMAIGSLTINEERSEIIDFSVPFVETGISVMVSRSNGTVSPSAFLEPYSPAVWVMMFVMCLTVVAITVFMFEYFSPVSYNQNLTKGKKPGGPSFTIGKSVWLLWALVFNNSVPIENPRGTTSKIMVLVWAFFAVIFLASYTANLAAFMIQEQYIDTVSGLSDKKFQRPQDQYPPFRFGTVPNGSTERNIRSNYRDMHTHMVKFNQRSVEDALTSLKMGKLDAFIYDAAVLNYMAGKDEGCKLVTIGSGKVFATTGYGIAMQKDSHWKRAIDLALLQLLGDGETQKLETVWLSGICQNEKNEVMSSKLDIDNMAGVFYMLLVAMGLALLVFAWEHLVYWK

For assay [1], the target named is GluN1/GluN2C^ΔCTD receptors (Rattus norvegicus, UniProt P35439+Q00961). The assay is described as follows: Two-electrode voltage clamp of GluN2C CTD-deleted receptors. Particulars: 10 µM L-glutamate/10 µM glycine; GluN2C without CTD (Fig. 3C). Type of assay: cell-based. In outline: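 Xenopus laevis oocytes were injected with GluN1a and GluN2 RNA at a 1:3 molar ratio. The CTD was removed by a stop codon at GluN1 838K or GluN2C 855K, and 10-20-fold more RNA than wild type was injected. Oocytes were kept in ND-96 at 17 °C for 1-5 days. TEVC was run at -60 mV in Ba2+ buffer (pH 7.4). […] Full-length receptors were run alternately on the same day and oocyte batch. Values are mean ± s.e.m.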

As to 5-Pregnen-3β-ol-20-onesulphate [PS], the IC50 on GluN1/GluN2C receptors was 82.4 ± 16.3 µM; in assay [1] it was 7.8 ± 1.2 µM.

Source of the values: PMC7058367 (Biochemical pharmacology, 2018).
